According to patent US20150353608A1:

Target: Fc region prepared from human monoclonal IgG by papain digestion (human)
Experiment: SPR, Fc immobilized

B1: polypeptide pep24 (peptide)
peptide: DAAWHLGELVWATYYDPETGTWEPDWQRMLGQ
**Q.** With B1 as the binder, how does the Kd read?
**A.** The Kd was 220 nM.
